Molecular target: T1, recombinant collectin-11 (rCL-11), CHO-expressed (human), Q9BWP8
T1 chain: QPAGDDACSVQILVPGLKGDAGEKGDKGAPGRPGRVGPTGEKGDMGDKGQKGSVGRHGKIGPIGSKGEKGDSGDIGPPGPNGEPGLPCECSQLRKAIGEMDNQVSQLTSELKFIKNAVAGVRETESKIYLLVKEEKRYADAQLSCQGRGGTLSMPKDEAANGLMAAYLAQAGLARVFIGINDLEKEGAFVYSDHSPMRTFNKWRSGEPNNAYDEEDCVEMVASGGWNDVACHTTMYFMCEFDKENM
Test: SDS-PAGE; molecular mass of rCL-11 on SDS gels, 105 kDa, taken as a trimer of polypeptides
Conditions: remark: other sources report otherwise

B1: recombinant collectin-11 (rCL-11), CHO-expressed, Q9BWP8 26-271 (natural protein)
chain: QPAGDDACSVQILVPGLKGDAGEKGDKGAPGRPGRVGPTGEKGDMGDKGQKGSVGRHGKIGPIGSKGEKGDSGDIGPPGPNGEPGLPCECSQLRKAIGEMDNQVSQLTSELKFIKNAVAGVRETESKIYLLVKEEKRYADAQLSCQGRGGTLSMPKDEAANGLMAAYLAQAGLARVFIGINDLEKEGAFVYSDHSPMRTFNKWRSGEPNNAYDEEDCVEMVASGGWNDVACHTTMYFMCEFDKENM
  stoichiometry N: 3

From paper PMC12582335
